uPA generation = inhibitors of cell surface uPA generation; AID 540303; cell surface uPA generation assay, qHTS; Potency, µM (series often up to 38.3 µM), usual class: inhibitors; 330,000 tested, 0.31% active; active = well fitted inhibition curve with a large enough effect; inconclusive = small, poorly fitted or top-dose-only effect; inactive = no such curve, though single readings can be large or run the other way; tested in mouse RAW 264.7 cells; also: nearly all actives have a fitted effect of over 55% in size
TDP1 block = TDP1 (human) enzyme inhibition; Q9NUW8; recombinant TDP1, AlphaScreen DNA substrate cleavage; Potency, µM (doses to about 130 µM), most hits filed as inhibitors; 350,000 tested, 0.28% active; AID 485290; also: nearly all actives have a fitted effect of over 40% in size
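Recombinant human Tdp1 (E. coli-expressed, 1 nM final) preincubated with compounds 15 min at room temperature, then 5'-biotin/3'-phosphotyrosine-FITC DNA substrate (15 nM final) added for 5 min. AlphaScreen beads (10 ug/ml final) added 10 min; cleavage lowers signal.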
miR-21 reporter = miR-21 reporter, rising signal | HeLa miR-21 FLuc reporter, luciferase, 48 h | Potency, µM (top dose mostly 38.3 µM) | 340,000 tested, under 10 active | AID 2288; active = well fitted rising curve with a large enough effect; inconclusive = small, poorly fitted or top-dose-only effect; inactive = no such curve, though single readings can be large or run the other way;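 further: miR-21 action dims this reporter so a rising signal means less miR-21 action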
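HeLa cells endogenously expressing miR-21, stably carrying CMV-driven firefly luciferase with a downstream miR-21 binding site, 2000 cells/well. Titrations up to approximately 40 uM, 48 hours; luciferase luminescence read.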
TDP1 cell noCPT = qHTS for Inhibitors of human tyrosyl-DNA phosphodiesterase 1 (TDP1): qHTS in cells in absence of CPT. DT40 Tdp1-/- hTDP1 cells, no CPT, ATP luminescence, 48 h. Potency, µM (top dose mostly 46.2 µM), actives largely listed as inhibitors. 420,000 tested, 15% active; also: nearly all actives have a fitted effect of over 55% in size
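Cells were dispensed at 400 per well, compounds added by pin tool, plates incubated ≥48 hr at 37 °C, then CellTiter-Glo added for 30 min at room temperature before luminescence reading. Line: DT40 Tdp1-/- complemented with hTDP1; camptothecin omitted.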
DT40 TDP1 CPT = DT40-hTDP1 cell growth loss with CPT | 420,000 tested, 12% active | Potency, µM (doses to about 46.2 µM), hits mostly inhibitors | chicken DT40 Tdp1-/-;hTDP1 cells + 20 nM CPT, ATP luminescence, 48 h | AID 686979; also: nearly all actives have a fitted effect of over 55% in size
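Chicken DT40 Tdp1-/- cells stably complemented with human TDP1 were seeded at 400 cells/well in medium containing 20 nM camptothecin, exposed to pin-transferred compounds, and grown at 37 °C for at least 48 hr. Viability was read as ATP luminescence.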
A number is an active result; . = inactive; ? = inconclusive; / = not tested or not shown. Sampled rows, rich in hits. Any-hit rate of the full collection: about 16%. Unless noted, calls follow the shape of the dose curve; as a rule, active = well fitted curve in the direction sought with a large enough effect; inconclusive = small, poorly fitted or top-dose-only effect, or another doubt; inactive = no such curve, though single readings can be large; an effect the other way counts as inactive or inconclusive.

SMILES	uPA generation	TDP1 block	miR-21 reporter	TDP1 cell noCPT	DT40 TDP1 CPT
Cc1ccc(S(=O)(=O)N2CC3(O)CN(C(=O)OC(C)C)N(C(=O)OC(C)C)CC3(OC(=O)Nc3cccs3)C2)cc1 (stereo unspecified)	/	/	/	18.4µM	?
COC(=O)[C@H]1C[C@@]2(O)CN(S(=O)(=O)c3ccc(C)cc3)C[C@@]2(OC(=O)NC2CCCC2)C[C@H]1C(=O)OC	/	/	/	.	.
Cc1ccc(S(=O)(=O)N2CC3(O)CN(C(=O)OC(C)C)N(C(=O)OC(C)C)CC3(OC(=O)NCc3ccco3)C2)cc1 (stereo unspecified)	/	/	/	20.6µM	?
O=C(CN1CCN(S(=O)(=O)c2ccccc2)CC1)NC(=O)NCc1ccco1	.	.	.	.	.
Cc1ccccc1NC(=O)CNC(=O)Cc1cccc2ccccc12	.	.	/	.	.
Cc1ccc2nc(CSc3nnc(NC(=O)c4cccc(Br)c4)s3)cc(=O)n2c1	/	.	.	.	.
C[C@@H]1CN([C@@H](C)CO)C(=O)c2cccc(NC(=O)c3nc4ccccc4s3)c2O[C@@H]1CN(C)CC1CC1	?	.	/	?	?
C=CCOc1ccc(C=Nc2ccc(OC)cc2)c(O)c1	.	.	.	.	.
OCCC1CN(Cc2ccon2)CCN1CCc1ccccc1 (stereo unspecified)	.	.	.	.	.
Oc1ccccc1CN(Cc1ccco1)CC(O)COCc1ccc(Cl)cc1 (stereo unspecified)	.	.	.	18.4µM	14.6µM
Cc1ccc(C(=O)COC(=O)CCC(=O)Nc2ccc(Oc3ccccc3)cc2)cc1	/	/	.	?	?
C=CCN(C(=O)CCC(=O)O)C1CC(=O)N(c2ccc(OCCC)cc2)C1=O (stereo unspecified)	.	.	.	25.9µM	23.1µM
CC1CCCCC1N1CN=C(Nc2nc3ccccc3s2)NC1 (stereo unspecified)	/	.	.	?	20.6µM
c1ccc2sc(NC3=NCN(C4CCCCC4)CN3)nc2c1	/	.	.	?	?
Cc1ccc(C(O)c2ccc(-n3ccnc3)cc2)cc1 (stereo unspecified)	.	/	.	14.6µM	?
COc1cccc(CNC(=O)c2cc3c(=O)n(C)c4ccccc4c3n2C)c1	/	.	.	?	.
COCCCn1c(=N)c(C(=O)NC2CCCCC2)cc2c(=O)n3cc(C)ccc3nc21	/	/	.	?	.
Cc1ccc2c(c1)c1c(c(=O)n(-c3ccccc3C)c(=O)n1CC(=O)c1ccc(Cl)cc1)n2C	/	.	.	?	?
COc1cccc(NC(=O)Cn2c(=O)n(Cc3ccccc3)c(=O)c3c2c2cc(C)ccc2n3C)c1	/	.	.	3.66µM	?
COc1ccc2c(c1)c1c(c(=O)n(Cc3ccccc3)c(=O)n1CC(=O)Nc1cc(C)cc(C)c1)n2C	/	.	.	.	?
COc1ccc2c(c1)c1c(c(=O)n(-c3ccccc3C)c(=O)n1CC(=O)NCc1ccc(C)cc1)n2C	/	.	.	13µM	20.6µM
Cc1ccc2c(c1)c1c(c(=O)n(-c3ccccc3C)c(=O)n1Cc1cccc(F)c1)n2C	/	.	.	9.2µM	13µM
COc1ccc2c(c1)c1c(c(=O)n(-c3ccccc3)c(=O)n1CC(=O)NCc1ccc(C)cc1)n2C	/	.	.	.	.
Cc1cccc(Cn2c(=O)n(-c3ccccc3C)c(=O)c3c2c2cc(C)ccc2n3C)c1	/	.	.	20.6µM	23.1µM
C=Cc1ccc(Cn2c(=O)n(-c3ccc(C)cc3)c(=O)c3c2c2cc(OC)ccc2n3C)cc1	/	.	.	25.9µM	?
SMILES	uPA generation	TDP1 block	miR-21 reporter	TDP1 cell noCPT	DT40 TDP1 CPT
c1cc(-c2ccc3c(c2)CCO3)n2cnnc2c1	/	/	/	.	.
CC(Oc1cccc(Cl)c1)C(=O)Nc1nc(-c2ccccn2)cs1 (stereo unspecified)	.	.	/	5.17µM	3.26µM
C[C@H](NC(=O)c1ccccc1)C(=O)Nc1nc(-c2ccccn2)cs1	.	.	.	?	25.9µM
CC(Oc1ccccc1)C(=O)Nc1nc(-c2ccncc2)cs1 (stereo unspecified)	.	.	/	.	?
CC(Oc1ccccc1)C(=O)Nc1nc(-c2ccccn2)cs1 (stereo unspecified)	.	.	/	3.26µM	3.66µM
CC(OC(=O)c1ccccn1)C(=O)Nc1nc(-c2ccc(F)c(F)c2)cs1 (stereo unspecified)	.	.	/	23.1µM	25.9µM
Cc1cc(C)cc(OCC(=O)Nc2nc(-c3ccccn3)cs2)c1	.	.	/	?	?
Cc1noc(C)c1S(=O)(=O)Nc1ccc(C(=O)N2CCC(C)CC2)cc1	/	.	.	/	/
CCCC(C)NC(=O)COc1ccc(Sc2ccc(OCC(=O)NC(C)CCC)cc2)cc1 (stereo unspecified)	.	.	.	11.6µM	8.2µM
CC(C)CNC(=O)COc1ccc(Sc2ccc(OCC(=O)NCC(C)C)cc2)cc1	.	.	.	1.64µM	?
CCCC(C)NC(=O)Cc1ccc(Br)cc1 (stereo unspecified)	.	.	.	.	.
N#Cc1cccc(NC(=O)Cn2cnc(S(=O)(=O)N3CCc4ccccc43)c2)c1	.	.	.	.	.
Cc1cc(C)n(-c2nc3ccccc3nc2N2CCN(S(=O)(=O)c3ccc4ccccc4c3)CC2)n1	/	.	.	14.1µM	?
Cc1cc(C)n(-c2nc3ccccc3nc2N2CCN(S(=O)(=O)c3ccc(F)c(C)c3)CC2)n1	.	.	.	?	23.1µM
